Legend:
[1] = pH of the experimental medium with bacteria in the absence of Caco-2 cells
Description: Lactobacillits bulgaricits L fiS. YL8. Lactobacillus paracasei STI 1l Lactobacillits gasseri LGA7: Lactobacillus reuteri LR7 and Streptococczws thermophiluts Sfi20, YS4 (Nestec collection, Lausanne. Switzerland) are placed in culture under anaerobic conditions in MRS broth for Lactobacillus or M1 7 for Streptococcus for two times 24 h, washed in PBS and resuspended in carrier buffer before being introduced into the top compartment of the inserts. The Caco-2:bacteria ratio is then about 1: 100 according to the tests (6.7×10^7 or 3.4×10^8 cfu/ml in the top compartment of the inserts. for the tests presented in FIGS. 2 and 3) The absorption of calcium is evaluated according to the protocol mentioned above.
In all these experiments, the diffusion of Lucifer yellow is modulated in a similar manner but remains negligible. 30 A decrease in pH in the top compartment of the inserts is also observed when the Caco-2 cells are in the presence of lactobacilli, regardless of the strain. except with the Sfi2O strain (Table 1). There is therefore no correlation between the increase in the absorption of calcium and this decrease in pH. However certain bacterial strains capable of increasing the absorption of calcium are not 35 capable of acidifving the experimental medium in the absence of Caco-2. […]

Caco-2 intestinal cells = assay: Transport (absorption) of calcium by Caco-2 intestinal cells in the presence of bacteria; format: cell-based, human; conditions: FIGS. 2 and 3; 6.7×10^7 or 3.4×10^8 cfu/ml in the top compartment; 10 mM CaCl2 apical, 2.5 mM basolateral
Description: Cell culture: the human cell line Caco-^9, isolated from a colon adenocarcinoma. is obtained from American Type Culture Collection (passage 41). The cells are placed in culture in an amount of 4×1I^4 cells/cm^2 in DMEM containing 4.5 g/l of glucose. 20% heat-inactivated foetal calf serum, 1 mg/ml of fungizone, 100 U/ml of penicillin/streptomycin. 200 µg/ml of gentamycin and 1% of nonessential amino acids. The cells are regularly tripsinized and placed in culture aaain at 1:20. The cells used in the calcium transport experiments are placed in culture at 1×10^5 cells/cm^2 in permeable inserts previously coated with a layer of collagen I at 50 pLg/ml. […]
The radioactivity contained in these samples is evaluated by liquid scintillation counting and makes it possible to extrapolate on the quantity of coicl CaCl2 absorbed. The basal transport of calcium is expressed as nmol of calcium transported to the bottom compartment of the insert. The diffusion of Lucifer yellow detected by spectrofluorometrv in the bottom compartment is expressed in % of the quantitv introduced into the top compartment. […]
(§1) Lactobacillits bulgaricits L fiS. […] The Caco-2:bacteria ratio is then about 1: 100 according to the tests (6.7×10^7 or 3.4×10^8 cfu/ml in the top compartment of the inserts. for the tests presented in FIGS. 2 and 3) The absorption of calcium is evaluated according to the protocol mentioned above.

Caco-2 cells = assay: pH of the experimental medium (top compartment of inserts) with bacteria in the presence of Caco-2 cells; format: cell-based, human
Description: Transport of calcium: the Caco-2 cells are cultured on inserts for 3 to 5 weeks. On the day of the experiment. the cellular lawn is washed twice in PBS and then the bottom compartment of the insert incorporating the serosa (basolateral pole of the cells) receives 1.5 ml of carrier butTer (140 mM NaCl. 5.8 mM KC[. 0.34 mM NaH PO4 0.44 mM KHIPO4, 0.8 mM M2SO4. 20 mM HEPES. 4 mM glutamine, 25 mM glucose, pH 7.4) supplemented with 2.5 mM CaCI2. whereas the top compartment of the insert incorporating the intestinal lumen (apical pole of the cells) receives 1.5 ml of carrier buffer supplemented with 10 mM CaCl2 and trace amounts of 4^5CaCl2 and Lucifer yellow. The inserts are then placed at 37° C. and 50 Kil of sample in the bottom and top compartments are removed at regular intervals.
as §1, with “fiS. YL8.” for “fiS.”, “above. […]” for “above.”

Substance: Lactobacillus johnsonii Lal (CNCM 1-1225) [La1]
- pH without Caco-2 [1]: 6.75 +/− 0.3
- absorption of calcium by the Caco-2 cells (Caco-2 intestinal cells): increased significantly
- pH with Caco-2 (Caco-2 cells): 3.75 +/− 0.3
